Common to all, as to test: purified protein
The subject of one series is BrCCCBr. The following applies: 100 mM glycine buffer pH 8.6, 37 °C.
For the next series, the system named is N#CCCCBr. The settings on record: 100 mM glycine buffer pH 8.6, 37 °C.
The next series relates to BrCCBr. The following applies: pH 8.6; 37.0 °C.

DmxA (Marinobacter sp. ELB17; Q40N): the Km in the series on BrCCCBr (no substrate inhibition) came to 130 µM; in the series with N#CCCCBr (no substrate inhibition), 1250 µM; with BrCCBr it was 1190 µM. The results for the kcat in the series with BrCCCBr (no substrate inhibition) and with N#CCCCBr (no substrate inhibition) were 30.91 s⁻¹ and 0.93 s⁻¹, respectively.

Consider “DmxA (Marinobacter sp. ELB17; F246A/M177A)”, for which the values for the K0.5 in the series on BrCCCBr, in the series with N#CCCCBr and with BrCCBr were 0.13 mM, 0.93 mM and 1.34 mM, respectively. In addition, the results for the kcat in the series with BrCCCBr and with N#CCCCBr were 1.91 s⁻¹ and 1.25 s⁻¹, respectively.

The record behind these values is PMC6920932.
